Results: patent publication US20050058640A1 (BAXTER INTERNATIONAL, published 2005)

Sequences of proteins named here, by UniProt entry; tags and fusion partners are left off.
UniProt P00742, whole entry, looked up: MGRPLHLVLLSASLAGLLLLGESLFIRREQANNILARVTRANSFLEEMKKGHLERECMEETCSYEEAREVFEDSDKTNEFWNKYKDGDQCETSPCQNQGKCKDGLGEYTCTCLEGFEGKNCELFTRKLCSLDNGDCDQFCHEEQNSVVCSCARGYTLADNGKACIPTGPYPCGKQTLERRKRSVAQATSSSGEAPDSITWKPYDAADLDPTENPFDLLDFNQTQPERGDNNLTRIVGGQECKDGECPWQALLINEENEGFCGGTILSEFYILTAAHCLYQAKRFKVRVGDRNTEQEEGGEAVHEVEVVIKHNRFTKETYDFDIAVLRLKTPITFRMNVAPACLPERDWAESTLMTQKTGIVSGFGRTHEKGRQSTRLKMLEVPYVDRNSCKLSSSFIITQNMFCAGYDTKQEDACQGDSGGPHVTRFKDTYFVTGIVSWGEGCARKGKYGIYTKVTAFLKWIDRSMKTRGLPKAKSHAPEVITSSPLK

Molecular target: human factor X (UniProt P00742)

Substance: human factor IXa
- KM: 0.0342 µM
- Vmax of FX activation: 0.063 nM/min
- kcat: 9.5e-05 s⁻¹
- kcat/KM: 2670 M⁻¹ s⁻¹
